{"sequences": {"note": "Protein sequences, listed by entry. Tags and fused reporters are not part of them.", "UniProt Q2TB90, whole entry": "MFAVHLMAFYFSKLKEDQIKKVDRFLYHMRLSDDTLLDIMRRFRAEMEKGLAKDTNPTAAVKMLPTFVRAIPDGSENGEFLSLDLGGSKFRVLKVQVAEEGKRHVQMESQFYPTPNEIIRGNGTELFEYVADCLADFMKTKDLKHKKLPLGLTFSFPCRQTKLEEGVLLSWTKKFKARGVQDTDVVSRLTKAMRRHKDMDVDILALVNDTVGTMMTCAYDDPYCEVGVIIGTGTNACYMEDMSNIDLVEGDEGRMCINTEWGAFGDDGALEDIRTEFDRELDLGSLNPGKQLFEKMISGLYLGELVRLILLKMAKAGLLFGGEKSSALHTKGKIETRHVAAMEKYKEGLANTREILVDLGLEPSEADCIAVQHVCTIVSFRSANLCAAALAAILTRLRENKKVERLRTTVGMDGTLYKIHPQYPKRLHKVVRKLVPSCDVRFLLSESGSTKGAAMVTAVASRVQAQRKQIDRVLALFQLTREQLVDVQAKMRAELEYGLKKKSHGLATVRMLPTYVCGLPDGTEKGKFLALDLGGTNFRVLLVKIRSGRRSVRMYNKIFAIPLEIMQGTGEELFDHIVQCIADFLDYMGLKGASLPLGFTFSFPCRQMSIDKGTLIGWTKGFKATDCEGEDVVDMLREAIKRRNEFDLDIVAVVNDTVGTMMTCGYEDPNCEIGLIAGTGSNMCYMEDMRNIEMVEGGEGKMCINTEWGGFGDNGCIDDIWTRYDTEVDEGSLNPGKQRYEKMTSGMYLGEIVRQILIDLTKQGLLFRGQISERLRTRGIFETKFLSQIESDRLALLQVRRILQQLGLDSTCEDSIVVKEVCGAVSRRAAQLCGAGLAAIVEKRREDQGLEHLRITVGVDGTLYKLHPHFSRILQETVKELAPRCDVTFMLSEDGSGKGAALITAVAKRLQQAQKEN"}, "source": "PubChem BioAssay AID493160", "about": "(Sanford-Burnham Center for Chemical Genomics, 2011)", "note": "The list shows a part of the results, in another mix than the full data. Some tests of the compounds listed are not included; inactive here does not mean inactive elsewhere. Active and inactive are the calls of the source.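 Rule for the calls: active = inhibition above about 35% when tested at 20 µM (limit read from the data); inactive = the rest.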", "data": [{"molecular_target": "Hexokinase HKDC1 (Homo sapiens) (UniProt Q2TB90)", "experiment": "HKDC1 hexokinase inhibitors, primary screen, biochemical, fluorescence, uHTS (AID 493160);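 note: plate controls were DMSO wells with enzyme for no effect and DMSO wells lacking enzyme for full effect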", "conditions": "recombinant HKDC1, G6PDH/diaphorase resazurin coupled fluorescence; at 20 µM; active compounds read high", "procedure,_shortened": "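Assay system – recombinant HKDC1 (HK5) hexokinase enzyme, produced in-house · Input – HKDC1 at 5 µg/mL · Reagent – glucose plus 1 mM ATP as hexokinase substrates · Timing – 90 min reaction incubation at room temperature, dark · Measured by – G6PDH/diaphorase-coupled fluorescence, 1 mM NADP, 100 µM resazurin, 525/613 nm · Benchmarks – DMSO-enzyme wells negative, buffer-substituted wells positive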", "values": [{"smiles": "Cc1ccc(C(=O)NCC2(N3CCCCC3)CCCCC2)cc1", "inhibition": "inactive: -6.21%"}, {"smiles": "CC(C)N1C(=O)CC2(CCN(CCOC(=O)C(O)(c3ccccc3)c3ccccc3)CC2)C1=O", "inhibition": "inactive: 6.12%"}, {"smiles": "CCN(CC)CC(C)C(C)OC(=O)C(O)(c1ccccc1)c1ccccc1", "note": "(stereo not given)", "inhibition": "inactive: -9.27%"}, {"smiles": "COc1cc(SC)ccc1C(=O)NCC1(N(C)C)CCCCC1", "inhibition": "inactive: 1.98%"}, {"smiles": "CN1[C@@H]2CC[C@H]1CC(OC(=O)C(O)(c1ccccc1)c1ccccc1)C2", "note": "(stereo not given in full)", "inhibition": "inactive: -3.01%"}, {"smiles": "O=C(NCC1(N2CCCCC2)CCCCC1)c1cc([N+](=O)[O-])ccc1Cl", "inhibition": "inactive: -4.11%"}, {"smiles": "CCN1CCCC(OC(=O)C2(O)c3ccccc3C=Cc3ccccc32)C1", "note": "(stereo not given)", "inhibition": "inactive: -5.9%"}, {"smiles": "Cc1cc(C(=O)NCC2(N3CCCCC3)CCCCC2)ccc1[N+](=O)[O-]", "inhibition": "inactive: -6.86%"}, {"smiles": "O=C(NCC1(N2CCCCC2)CCCCC1)c1cccc(Br)c1", "inhibition": "inactive: 0.88%"}, {"smiles": "COc1ccc(C(=O)NCC2(N(C)C)CCCCC2)cc1", "inhibition": "inactive: -4.91%"}, {"smiles": "C=CCN1CCN(CCOC(=O)C(O)(c2ccccc2)c2ccccc2)CC1", "inhibition": "inactive: 13.8%"}, {"smiles": "O=C(NCC1(N2CCCCC2)CCCCC1)c1cc(F)c(F)cc1Cl", "inhibition": "inactive: -3.55%"}, {"smiles": "Cc1ccccc1C(=O)NCC1(N2CCCCC2)CCCCC1", "inhibition": "inactive: -9.51%"}, {"smiles": "CN(C)c1ccc(C(=O)NCC2(N(C)C)CCCCC2)cc1", "inhibition": "inactive: 0.89%"}, {"smiles": "CN(C)C1CCCC1OC(=O)C(O)(c1ccccc1)c1ccccc1", "note": "(stereo not given)", "inhibition": "inactive: -10.9%"}, {"smiles": "O=C(NCC1(N2CCCCC2)CCCCC1)c1cccc(Cl)c1", "inhibition": "inactive: 1.01%"}, {"smiles": "COc1cccc(C(=O)NCC2(N3CCCCC3)CCCCC2)c1", "inhibition": "inactive: -6.25%"}, {"smiles": "COc1ccc(Cl)cc1C(=O)NCC1(N(C)C)CCCCC1", "inhibition": "inactive: -3.32%"}, {"smiles": "COc1cc(C(=O)NCC2(N(C)C)CCCCC2)c([N+](=O)[O-])cc1OC", "inhibition": "inactive: -0.73%"}, {"smiles": "CN(C)C1(CNC(=O)c2ccc(Br)cc2)CCCCC1", "inhibition": "inactive: -4.9%"}, {"smiles": "CN(C)c1cccc(C(=O)NCC2(N(C)C)CCCCC2)c1", "inhibition": "inactive: -4.35%"}, {"smiles": "CC(C)Oc1ccc(C(=O)NCC2(N(C)C)CCCCC2)cc1", "inhibition": "inactive: -4.33%"}, {"smiles": "O=C(OCCN1CCCC1)C(O)(c1ccccc1)c1ccccc1", "inhibition": "inactive: -9.5%"}, {"smiles": "COc1ccc(Br)c(C(=O)NCC2(N3CCCCC3)CCCCC2)c1", "inhibition": "inactive: -4.24%"}, {"smiles": "O=C(OC1CN2CCC1CC2)C(CO)(c1ccccc1)c1ccccc1", "note": "(stereo not given)", "inhibition": "inactive: 6.93%"}]}]}
